# Molecular target: T1, histamine-H2-receptors (Cavia porcellus, UniProt P47747)
# The chains behind the UniProt entries cited, without tags or fusion partners.
# UniProt P47747, whole entry: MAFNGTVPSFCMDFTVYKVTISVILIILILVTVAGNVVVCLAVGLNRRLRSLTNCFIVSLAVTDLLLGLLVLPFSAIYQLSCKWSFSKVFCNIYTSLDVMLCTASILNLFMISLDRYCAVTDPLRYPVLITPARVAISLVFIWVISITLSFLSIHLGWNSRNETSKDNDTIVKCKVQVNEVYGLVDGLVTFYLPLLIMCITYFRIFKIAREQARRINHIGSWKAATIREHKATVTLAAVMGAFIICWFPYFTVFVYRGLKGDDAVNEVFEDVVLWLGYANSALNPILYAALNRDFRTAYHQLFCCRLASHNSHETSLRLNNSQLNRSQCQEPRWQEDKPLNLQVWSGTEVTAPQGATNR
# T1 construct: in vitro on the isolated atrium of guinea pigs; from tissue; host or cells: isolated guinea pig atrium
# Assay: pA2 determination of H2-antagonistic activity in vitro on the isolated atrium of guinea pigs
# Conditions: isolated guinea pig atrium
# From the text: A recognized method of measuring H2 -antagonistic activity is based on determination of the pA2 -values in vitro on the isolated atrium of guinea pigs (cf. Ariens, Molecular Pharmacology, Vol. 1, Academic Press, New York, 1964).
structure (smiles),measurement,value
"CN/C(=N/CCSCc1nc[nH]c1C)NC#N [Cimetidine, cimetidine]",Kb,0.617 µM
